Assay results from PubChem BioAssay AID485347 (National Center for Advancing Translational Sciences (NCATS), 2010).
Only a part is listed here, and it is no random draw. Activity calls are given as the source filed them.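 How the source made its calls: active means potentiation over 3 SD above the plate norm (cut at about 30% in these data); inactive means the rest.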

The chains behind the UniProt entries cited, without tags or fusion partners.
UniProt P14416, whole entry: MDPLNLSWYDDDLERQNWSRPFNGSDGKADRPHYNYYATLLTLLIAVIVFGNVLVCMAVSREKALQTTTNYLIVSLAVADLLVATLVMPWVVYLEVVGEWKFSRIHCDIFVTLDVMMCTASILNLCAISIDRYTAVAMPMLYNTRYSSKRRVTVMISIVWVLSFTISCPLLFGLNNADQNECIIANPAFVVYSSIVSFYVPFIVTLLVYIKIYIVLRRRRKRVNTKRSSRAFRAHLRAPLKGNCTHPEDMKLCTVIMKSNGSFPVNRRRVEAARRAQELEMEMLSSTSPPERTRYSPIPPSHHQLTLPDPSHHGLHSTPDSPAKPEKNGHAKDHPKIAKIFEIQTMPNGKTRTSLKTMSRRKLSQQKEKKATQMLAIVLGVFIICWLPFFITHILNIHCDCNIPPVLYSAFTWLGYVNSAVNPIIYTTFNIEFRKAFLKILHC

Molecular target: D(2) dopamine receptor (Homo sapiens) (UniProt P14416)
Test: HTS Assay for Positive Allosteric Modulators of the Human D2 Dopamine Receptor: Primary Screen for Potentiators; further: 0% is about no effect
Settings: HEK293 T-REx D2, calcium flux, EC20 dopamine potentiation; at 10 µM; active compounds read high
From the text: NIH Chemical Genomics Center [NCGC] NIH Molecular Libraries Probe Centers Network [MLPCN] MLPCN Grant: NS064831-01 Assay Submitter (PI): David Sibley Dopamine receptors (DARs) are involved in the etiology and/or therapy of a number of neuropsychiatric and endocrine disorders. For instance, all receptor-based antiparkinsonian drugs work via stimulating the D2 DAR subtype whereas all FDA-approved antipsychotic agents are antagonists of this receptor. […] There are three different types of allosteric modulators that we are seeking, two of which will stimulate or augment receptor signaling, allosteric agonists and potentiators, while the third, allosteric antagonists, will attenuate receptor signaling. The present primary screening assay measures compound potentiation of an EC20 dopamine response by tracking calcium flux in a […], inducible Hek293 Trex D2 cell line.
Freshly passaged cells are plated in 1536 well black, clear bottom plates at a density of 4000 cells/well in 3 ul of complete media containing 1x tetracycline inducer. After an overnight incubation at 30 C in 5% CO2, cells are loaded with 2 ul of the no wash Calcium Assay Kit (ABD Bioquest) and incubated at room temperature for 30 to 90 minutes. A 10 cycle (1 second/cycle) baseline measurement is taken and then the FDSS online 1536 pintool delivers 23 nl of compound library (as well as dopamine controls) to the plate. The plate is measured for kinetically at 1 cycle/sec for 180 seconds and is considered to be the agonist portion of the assay (eg, compounds which activate a positive calcium response during this portion are flagged as potential agonists). Following the 180 second read, 1 ul of an EC20 of dopamine is delivered by an onboard pipette head. Measurements are taken kinetically for an additional 180 seconds.

Compound	potentiation
COc1ccccc1OP(C)(=O)Nc1ccc(Br)cc1 (stereo unspecified)	inactive: -7.65%
CN(C)CCOC(=O)C(O)(c1ccccc1)C1CCCC1 (stereo unspecified)	inactive: -20.1%
COc1ccc(OP(C)(=O)Nc2ccccn2)cc1 (stereo unspecified)	inactive: -9.84%
Cc1c(NP(C)(=O)Oc2ccc(C(C)C)cc2)c(=O)n(-c2ccccc2)n1C (stereo unspecified)	inactive: 11.8%
O=[N+]([O-])c1cc([N+](=O)[O-])c(Nc2ccccn2)c([N+](=O)[O-])c1	inactive: 4.04%
CCc1ccc(OP(C)(=O)O)cc1	inactive: -6.05%
CP(=O)(Nc1ccccn1)Oc1ccccc1 (stereo unspecified)	inactive: 11.1%
COc1ccccc1OP(C)(=O)Nc1ccc(C)cc1C (stereo unspecified)	inactive: -2.22%
Cc1cc(C)cc(OP(C)(=O)Nc2cccc(C(F)(F)F)c2)c1 (stereo unspecified)	inactive: -5.73%
COc1ccc(OP(C)(=O)Nc2ccccc2Br)cc1 (stereo unspecified)	inactive: 7.77%
COc1ccccc1OP(C)(=O)Nc1ccc(C)c(C)c1 (stereo unspecified)	inactive: 4.03%
Cc1nc2ccc3ccccc3c2o1.O=[N+]([O-])c1cc([N+](=O)[O-])c(O)c([N+](=O)[O-])c1	inactive: 7.03%
CP(=O)(Nc1ccc(Cl)cc1Cl)Oc1ccccc1 (stereo unspecified)	inactive: 0.875%
CP(=O)(OCCOc1ccccc1)OCCOc1ccccc1	inactive: 6.13%
CP(=O)(OC12CC3CC(CC(C3)C1)C2)OC12CC3CC(CC(C3)C1)C2	inactive: 2.51%
CCOC(=O)c1ccc(NP(C)(=O)Oc2ccc(Cl)cc2)cc1 (stereo unspecified)	inactive: -7.19%
CCN(CC)CC(O)COC(=O)C(O)(c1ccccc1)C1CCCCC1 (stereo unspecified)	inactive: 5.1%
COc1ccc(OP(C)(=O)Nc2ccc(Br)cc2)cc1 (stereo unspecified)	inactive: 4.39%
CP(=O)(Oc1ccccc1)N1CCOC1=O (stereo unspecified)	inactive: 2.06%
CCc1ccc(OP(C)(=O)Nc2cccnc2)cc1 (stereo unspecified)	inactive: 23.7%
COc1ccccc1OP(C)(=O)Nc1c(C)n(C)n(-c2ccccc2)c1=O (stereo unspecified)	inactive: 10.7%
O=C(OCCCN1CCCC1)C(O)(c1ccccc1)C1CCCCC1 (stereo unspecified)	inactive: 9.15%
CP(=O)(Nc1ccc(Cl)cc1)Oc1ccc(F)cc1 (stereo unspecified)	inactive: 9.38%
COc1ccccc1OP(C)(=O)Nc1ccccc1Br (stereo unspecified)	inactive: 0.814%
CC(C)(C)c1ccc(OP(C)(=O)O)cc1	inactive: -9.47%
CP(=O)(Nc1ccc(SC(F)(F)F)cc1)Oc1ccc(F)cc1 (stereo unspecified)	inactive: 6.7%

Compound	potentiation
CP(=O)(Nc1ccc2c(c1)OCCO2)Oc1ccccc1 (stereo unspecified)	inactive: -22.8%
Cc1ccccc1NP(C)(=O)Nc1ccccc1C	inactive: 10.6%
COc1ccc(OP(C)(=O)Nc2cccc(Br)c2)cc1 (stereo unspecified)	inactive: 1.99%
COc1ccc(NP(C)(=O)Oc2ccccc2OC)cc1 (stereo unspecified)	inactive: 26.2%
CN(C)CCOC(=O)C(O)(c1ccccc1)C1CCCCC1 (stereo unspecified)	inactive: -21%
Cc1cc(-c2cccc3ccccc23)c(C)cn1.O=[N+]([O-])c1cc([N+](=O)[O-])c(O)c([N+](=O)[O-])c1	inactive: -8.15%
O=[N+]([O-])c1ccc(OP2(=O)COCCO2)cc1 (stereo unspecified)	inactive: 7.81%
COc1ccc(OP(C)(=O)Nc2ccc(SC(F)(F)F)cc2)cc1 (stereo unspecified)	inactive: 7.71%
CCOC(=O)c1ccc(NP(C)(=O)Oc2ccc(F)cc2)cc1 (stereo unspecified)	inactive: -5.52%
CCCCCOc1ccc(NP(C)(=O)Oc2ccc(Cl)cc2Cl)cc1 (stereo unspecified)	inactive: -0.955%
CP(=O)(Nc1ccccc1)Oc1ccc(F)cc1 (stereo unspecified)	inactive: 0.457%
CC(C)c1ccc(OP(C)(=O)Nc2ccc(SC(F)(F)F)cc2)cc1 (stereo unspecified)	inactive: 11.1%
CP(=O)(Nc1ccccc1F)Oc1ccccc1 (stereo unspecified)	inactive: 3.59%
O=C(OCCN1CCN(CCOCc2ccccc2)CC1)C(O)(c1ccccc1)c1ccccc1	inactive: -18.2%
COc1ccccc1OP(C)(=O)Nc1cccc(Br)c1 (stereo unspecified)	inactive: -4.48%
Cc1cc(C)cc(OP(C)(=O)Nc2ccc(C)cc2C)c1 (stereo unspecified)	inactive: -3.89%
CCOC(=O)c1ccc(NP(C)(=O)Oc2cc(C)cc(C)c2)cc1 (stereo unspecified)	inactive: -25.1%
Cc1cc(C)cc(OP(C)(=O)Nc2ccccn2)c1 (stereo unspecified)	inactive: -6.09%
CP(=O)(Nc1cccc(Br)c1)Oc1ccccc1 (stereo unspecified)	inactive: 8.33%
Cc1ccc(C)c(NP(C)(=O)Oc2ccccc2)c1 (stereo unspecified)	inactive: 0.321%
CC1=NCCc2c1[nH]c1ccccc21.O=[N+]([O-])c1cc([N+](=O)[O-])c(O)c([N+](=O)[O-])c1	inactive: -8.41%
CC1=C2N=C(C=C3N=C(C(C)=C4[N-][C@@](C)([C@@H]5N=C1[C@](C)(CCC(=O)NC[C@@H](C)OP(=O)([O-])O[C@H]1[C@@H](O)[C@@H](n6cnc7cc(C)c(C)cc76)O[C@@H]1CO)[C@H]5CC(N)=O)[C@@](C)(CC(N)=O)[C@@H]4CCC(N)=O)[C@@](C)(CC(N)=O)[C@@H]3CCC(N)=O)C(C)(C)[C@@H]2CCC(N)=O.[C-]#N.[Co+3]	inactive: 4.42%
O=[N+]([O-])c1cc([N+](=O)[O-])c(Nc2nnnn2CCO)c([N+](=O)[O-])c1	inactive: 13.8%
CN1CCCCC1COC(=O)C1(O)c2ccccc2CCc2ccccc21 (stereo unspecified)	inactive: 14.8%
COc1ccccc1OP(C)(=O)Nc1c(C)cccc1C (stereo unspecified)	inactive: -0.945%
CP(=O)(Nc1ccc(SC(F)(F)F)cc1)Oc1ccccc1 (stereo unspecified)	inactive: 16.6%

Compound	potentiation
O=[N+]([O-])c1cc([N+](=O)[O-])c(-n2nnc3ccccc32)c([N+](=O)[O-])c1	inactive: -1.59%
Cc1nc2ccc3ccccc3c2s1.O=[N+]([O-])c1cc([N+](=O)[O-])c(O)c([N+](=O)[O-])c1	inactive: -13.2%
CP(=O)(Nc1ccc(SC(F)(F)F)cc1)Oc1ccc(Cl)cc1 (stereo unspecified)	inactive: -7.31%
Cc1cccc(C)c1OP(C)(=O)Nc1ccc(SC(F)(F)F)cc1 (stereo unspecified)	inactive: 3.69%
CP(=O)(Oc1ccccc1)OC(c1ccccc1)C(F)(F)F (stereo unspecified)	inactive: 13.5%
CP(=O)(NC(=O)Nc1ccccc1)Oc1ccccc1 (stereo unspecified)	inactive: 5.8%
CCc1ccc(OP(C)(=O)N2CCN(c3ccc([N+](=O)[O-])cc3)CC2)cc1 (stereo unspecified)	inactive: 0.352%
Cc1cc(C)cc(OP(C)(=O)Nc2ccc(SC(F)(F)F)cc2)c1 (stereo unspecified)	inactive: 3.91%
CCOP(C)(=S)SCC(=O)NC(C)C(=O)O (stereo unspecified)	inactive: -1.18%
CCOC(=O)c1ccc(NP(C)(=O)Oc2ccc(OC)cc2)cc1 (stereo unspecified)	inactive: 4.94%
CP(=O)(Nc1ccccn1)Oc1ccc(Cl)cc1 (stereo unspecified)	inactive: 0.994%
CP(=S)(Nn1cnnc1)Oc1ccccc1 (stereo unspecified)	inactive: -1.29%
COc1ccccc1OP(C)(=O)Nc1ccccc1 (stereo unspecified)	inactive: 3.85%
CP(=O)(Nc1ccccc1Br)Oc1ccccc1 (stereo unspecified)	inactive: -7.3%
O=[N+]([O-])c1cc([N+](=O)[O-])c(Nc2cccnc2)c([N+](=O)[O-])c1	inactive: 9.83%
CC(C)(C)c1ccc(OP(C)(=O)Nc2ccc(SC(F)(F)F)cc2)cc1 (stereo unspecified)	inactive: -3.79%
Cc1cccc(C)c1OP(C)(N)=O (stereo unspecified)	inactive: 10%
O=[N+]([O-])c1ccc2c(c1)C=Nc1ccccc1O2	inactive: 3.98%
CCOC(=O)c1ccc(NP(C)(=O)Oc2ccccc2)cc1 (stereo unspecified)	inactive: 0.987%
COc1ccccc1OP(C)(=O)Nc1ccc(C)cc1 (stereo unspecified)	inactive: 4.01%
Cc1ccc(NP(C)(=O)Oc2ccccc2)c(C)c1 (stereo unspecified)	inactive: -6.73%
COc1ccc(OP(C)(=O)Nc2cccc(F)c2)cc1 (stereo unspecified)	inactive: -1.6%
Cc1cc(C)cc(OP(C)(N)=O)c1 (stereo unspecified)	inactive: 9.08%
CCN(CC)CCCOC(=O)C(O)(c1ccccc1)c1ccccc1	inactive: -2.19%
